From US20120064513A1, “Cell Sensor, And Monitoring Method Using Same For The Real-Time Monitoring Of Cell Capacitance” (Industry-Acaddemic Cooperation Foundation, Yonsei …, priority 2009, published 2012)

System: 435 breast cancer cells overexpressing ErbB-2 (HER2/neu)
Assay: real-time monitoring of cell capacitance with the cell sensor, 435 breast cancer cells
Assay type: cell-based
Text: The cell sensor 100 is connected to an LCR meter to measure capacitance, thereby monitoring potential changes of the cell 200 in real time. At this time, 10 mV of AC voltage at a frequency of 3 KHz is applied to the cell sensor 100. In this regard, the frequency of AC voltage applied to the cell sensor 100 may vary depending on the gap size between the first electrode 121 and the second electrode 122, and any frequency other than 3 KHz is also possible, as long as it is a low frequency.
A method for monitoring a cell condition in real time using the cell sensor according to the preferred embodiment of the present invention is as follows.
First, the aforementioned cell sensor is fabricated. The fabricated electrode is sterilized using autoclave equipment and ethanol, and then the well made of acryl or PDMS is attached on the electrode for cell culture.
Next, cells grown to a predetermined density are harvested with trypsin-EDTA, and introduced and attached onto the gap area between the electrodes using a pipette. […]
During the cell cultivation, capacitance between the first electrode and the second electrode is measured in real time, and thus endocytosis of the biomolecules into the cells through the cell surface receptor or adsorption is monitored in real time.

For “herceptin: antibody against ErbB-2 (HER2/neu), anticancer agent used for metastatic breast cancer, osteosarcoma or the like”, the initial capacitance peak was “peak similar to those in the virus and CAR-antibody treatment is observed” and the “concentration dependence of initial capacitance peak” value (different concentrations) was “initial peaks differ depending on the concentrations”.
